This data set is described as follows: Liver microsomal stability, dog. The following applies: male, Beagle, pH 7.4; dog liver microsomes, 3 μM compound; read-out: Liver Microsomal Stability T1/2, dog. The data set is classed as in vitro ADME. How it is done: Microsomal Incubation: Experimental Procedure
Pooled human liver microsomes (pooled male and female), pooled rat liver microsomes (male Sprague Dawley rats) and pooled dog liver microsomes (male Beagle dog) are purchased from a reputable commercial supplier and stored at −80° C. prior to use.
Microsomes (final protein concentration 0.5 mg/mL), 0.1 M phosphate buffer pH 7.4 and test compound (final substrate concentration 3 μM; final DMSO concentration 0.25%) are pre-incubated at 37° C. prior to the addition of NADPH (final concentration 1 mM) to initiate the reaction. The final incubation volume is 50 μL. A control incubation is included for each compound tested where 0.1 M phosphate buffer pH 7.4 is added instead of NADPH (minus NADPH). Two control compounds are included with each species. All incubations are performed singularly for each test compound.
Compounds are incubated for 0, 5, 15, 30 and 45 min. The control (minus NADPH) is incubated for 45 min only. […] Following protein precipitation, the sample supernatants are combined in cassettes of up to 4 compounds, internal standard is added and samples analysed by LC-MS/MS. From a plot of ln peak area ratio (compound peak area/internal standard peak area) against time, the gradient of the line is determined. Subsequently, half-life and intrinsic clearance are calculated
In general terms: Liver microsomes are vesicles of endoplasmic reticulum, rich in cytochrome P450 enzymes.

In US10106539B2, “Spiro-indolines for the treatment and prophylaxis of respiratory syncytial virus infection (RSV)” (REVIRAL LIMITED, priority 2014, dated 2018) one finds half-life data, which are given here for 1 compound.

For the compound `NCc1ccc2c(c1)nc(CN1C(=O)C3(CC3)c3ccc(F)cc31)n2CCCC(F)(F)F` [Example 1, 1′-{[5-(Aminomethyl)-1-(4,4,4-trifluorobutyl)-1H-1,3-benzodiazol-2-yl]methyl}-6′-fluoro-1′,2′-dihydrospiro[cyclopropane-1,3′-indole]-2′-one], the half-life at 3 μM is 8.87 h.
